Measurements reported in patent publication US6818620B2, “Synthetic compounds and compositions with enhanced cell binding” (The Regents of the University of California, priority 1991, dated 2004).

Tested on: cells
Test: Relative cell-binding activity of synthetic peptides (relative to the SEQ ID NO:1 peptide / P-15, or to collagen)
Assay type: cell-based
Method: Several more synthetic peptides were prepared and tested for cell binding activity (relative to the SEQ ID NO:1 peptide) all of which have the β-bend feature and which have excellent cell binding activity.
The relative efficiencies of some synthetic peptides of this invention for cell-binding activity (relative to the inventive peptide illustrated in Examples 1 and 2) are set out in Table 4.

Substance: -Ile-Ala- (IA; OTHER INFORMATION: synthetic peptide; OTHER INFORMATION: N-acetyl Isoleucine; OTHER INFORMATION: alanyl-methylamide) [the dipeptide -Ile-Ala- itself]
- biological activity relative to that of P-15: 60%
- cell binding activity compared with P-15 region / SEQ ID NO:1 peptide (in words): quite active
